Values quoted from earlier work as cited in patent US4231925A, “Pentapeptides with analgesic activity on peripheral administration” (American Home Products Corporation, priority 1979, dated 1980).
Where two headings read alike, the source gives them in different places.

What was measured:
[1] = rat blood plasma; cited from earlier work
[2] = human blood plasma; cited from earlier work

H--Tyr--Gly--Gly--Phe--Leu--OH [Leu-enkephalin]
breakdown in blood plasma [1]: broken down | breakdown in blood plasma [2]: broken down
